Where a name gives a salt, the structure may show the parent alone.
Experiments:
human albumin [1] = assay: Free pentobarbital in human albumin solution with ethanol (differential solution pH change); format: in vitro ADME; settings: ethanol 0 to 1.0% v/v, room temperature
human albumin [2] = assay: Free chlorpromazine in human albumin solution with ethanol (differential solution pH change); format: in vitro ADME; settings: ethanol 0 to 1.0% v/v; room temperature

| Structure (SMILES) | ethanol concentration of maximum differential pH change (maximum free soluble drug concentration) (human albumin [1]) | differential solution pH change (human albumin [2]) |
| --- | --- | --- |
| CCCC(C)C1(CC)C(=O)NC(=O)NC1=O (centres unmarked) [Pentobarbital] | 0.6 % v/v |  |
| CN(C)CCCN1c2ccccc2Sc2ccc(Cl)cc21 [Chlorpromazine HCl] |  | continuous pH changes |
